# Measured values taken from PubChem BioAssay AID588795 (National Center for Advancing Translational Sciences (NCATS), 2011).
# Protein sequences, listed by entry. Tags and fused reporters are not part of them.
# UniProt P39748, whole entry: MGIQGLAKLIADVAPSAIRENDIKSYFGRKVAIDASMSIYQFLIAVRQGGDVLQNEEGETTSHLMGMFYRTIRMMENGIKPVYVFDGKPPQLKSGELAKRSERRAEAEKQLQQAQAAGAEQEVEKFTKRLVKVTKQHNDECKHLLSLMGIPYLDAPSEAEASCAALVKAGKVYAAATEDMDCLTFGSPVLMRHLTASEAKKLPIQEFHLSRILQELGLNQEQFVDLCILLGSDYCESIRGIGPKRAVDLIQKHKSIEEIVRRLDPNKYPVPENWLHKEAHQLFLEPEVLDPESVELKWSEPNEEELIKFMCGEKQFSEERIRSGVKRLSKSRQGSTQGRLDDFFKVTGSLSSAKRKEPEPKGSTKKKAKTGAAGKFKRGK
# The entries are a selection whose mix differs from that of the whole data set. Some results for these compounds are left out of this collection, so the calls shown say nothing about other tests. Calls of active or inactive are those of the source. Calls come from the whole dose curve; as a rule, active = well fitted inhibition curve with a large enough effect; inconclusive = small, poorly fitted or top-dose-only effect; inactive = no such curve, though single readings can be large or run the other way.
# Biological target: Flap endonuclease 1 (Homo sapiens) (UniProt P39748)
# Test: qHTS Assay for the Inhibitors of Human Flap endonuclease 1 (FEN1). Note: nearly all actives have a fitted effect of over 65% in size.
# Settings: Recombinant FEN1 flap cleavage, fluorescence, 15 min; at 114 µM (top of the series)
# % is set by controls: 0 for no effect and ±100 for the full control effect.
row,Compound,"activity change, negative = inhibition"
1,CN(C)C1(CNC(=O)c2ccc(Br)cc2)CCCCC1,inactive: -0.568%
2,O=C(CBr)c1ccc(Cl)cc1,inactive: 16.4%
3,O=C(NCC1(N2CCCCC2)CCCCC1)c1cccc(Cl)c1,inactive: 2.72%
4,COc1ccc(C(=O)NCC2(N(C)C)CCCCC2)cc1Cl,inactive: -3.09%
5,COc1ccc(Cl)cc1C(=O)NCC1(N(C)C)CCCCC1,inactive: 9.37%
6,COc1cccc(C(=O)NCC2(N3CCCCC3)CCCCC2)c1,inactive: -6.1%
7,O=C(OC1CN2CCC1CC2)C(CO)(c1ccccc1)c1ccccc1 (stereo not given),inactive: -8.49%
8,COc1cccc(C(=O)NCC2(N3CCOCC3)CCCCC2)c1,inactive: -10%
9,O=C(OCCN1CCCC1)C(O)(c1ccccc1)c1ccccc1,inactive: 0.568%
10,COc1ccc(Br)c(C(=O)NCC2(N3CCCCC3)CCCCC2)c1,inactive: -16.3%
11,Cc1cccc(C(=O)NCC2(N(C)C)CCCCC2)c1,inactive: -0.929%
12,COc1cc(C(=O)NCC2(N(C)C)CCCCC2)cc(OC)c1OC,inactive: 1.83%
13,CN1[C@@H]2CC[C@H]1CC(OC(=O)C(O)(c1ccccc1)c1ccccc1)C2 (stereo not given in full),inactive: 2.44%
14,O=C(NCC1(N2CCCCC2)CCCCC1)c1cc([N+](=O)[O-])ccc1Cl,inactive: -0.849%
15,CN(C)C1(CNC(=O)c2ccccc2F)CCCCC1,inactive: 2.48%
16,Cc1ccc(C(=O)NCC2(N3CCCCC3)CCCCC2)cc1,inactive: -3.35%
17,CC(C)N1C(=O)CC2(CCN(CCOC(=O)C(O)(c3ccccc3)c3ccccc3)CC2)C1=O,inactive: 1.33%
18,COc1cc(SC)ccc1C(=O)NCC1(N(C)C)CCCCC1,inactive: -8.53%
19,CN(C)C1(CNC(=O)c2cccc(Cl)c2)CCCCC1,inactive: -4.73%
20,CCN(CC)CC(C)C(C)OC(=O)C(O)(c1ccccc1)c1ccccc1 (stereo not given),inactive: -0.296%
21,CCCCOc1ccccc1C(=O)NCC1(N(C)C)CCCCC1,inactive: -9.06%
22,CN(C)C1CCCC1OC(=O)C(O)(c1ccccc1)c1ccccc1 (stereo not given),inactive: 0.864%
23,CN(C)c1ccc(C(=O)NCC2(N(C)C)CCCCC2)cc1,inactive: -5.6%
24,CN(C)C1(CNC(=O)c2ccccc2[N+](=O)[O-])CCCCC1,inactive: 7.09%
25,Cc1ccccc1C(=O)NCC1(N2CCCCC2)CCCCC1,inactive: -6.97%
26,O=C(NCC1(N2CCCCC2)CCCCC1)c1cccc(Br)c1,inactive: 1.06%
27,CCN1CCCC(OC(=O)C2(O)c3ccccc3C=Cc3ccccc32)C1 (stereo not given),inactive: -2.86%
28,CCOc1cccc(C(=O)NCC2(N(C)C)CCCCC2)c1,inactive: 22.5%
29,COc1ccc(C(=O)NCC2(N(C)C)CCCCC2)cc1,inactive: -3.28%
30,O=C(NCC1(N2CCCCC2)CCCCC1)c1cc(F)c(F)cc1Cl,inactive: -3.44%
